Experimental data reported in paper PMC5464344, “Analgesic and anti‐inflammatory properties of novel, selective, and potent EP4 receptor antagonists” (Pharmacology Research & Perspectives, 2017).

Chains of the proteins cited; added tags and fusions are not shown. Lines headed by an entry give the natural chain unless they say otherwise; changes in a name come on top.
UniProt P43116: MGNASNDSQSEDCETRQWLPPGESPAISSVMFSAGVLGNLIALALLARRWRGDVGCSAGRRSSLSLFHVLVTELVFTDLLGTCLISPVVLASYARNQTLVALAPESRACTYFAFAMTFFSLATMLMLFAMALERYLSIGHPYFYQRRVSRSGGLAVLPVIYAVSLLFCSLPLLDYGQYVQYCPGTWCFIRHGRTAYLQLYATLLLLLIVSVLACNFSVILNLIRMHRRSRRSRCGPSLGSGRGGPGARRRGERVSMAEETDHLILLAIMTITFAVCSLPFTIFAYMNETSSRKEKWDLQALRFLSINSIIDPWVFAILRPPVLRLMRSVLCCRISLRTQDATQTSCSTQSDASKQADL

Biological target: T1, human EP2 receptor (Homo sapiens, UniProt P43116)
T1 construct: host or cells: HEK293, transient; membrane preparation
Assay: [3H]-PGE2 receptor binding assay, EP2 membranes
Details: read-out: ^3[H] PGE2 Binding/kd EP2; HEK 293 membranes, homologous competition (Fig. 3D)
Protocol: Receptor binding assays were done using membrane preparations of HEK 293 cells transfected with various prostanoid receptors using previously published procedure (Nakao et al. 2007). EP1 and EP4 membranes were prepared from recombinant HEK293 cells stably expressing human EPl receptor (GenBank Accession # AY275470, Clone ID PER0100000, UMR cDNA Resource Center, Rolla, MO) or human EP4 receptor. EP2 and EP3 membranes were prepared from HEK293 cells transiently transfected with human EP2 receptor (GenBank Accession # AY275471, Clone ID PER0200000, UMR cDNA Resource Center, Rolla, MO) or human EP3 receptor (GenBank Accession # AY429108, Clone ID PER3VI0000, UMR cDNA Resource Center, Rolla, MO) plasmids. […] The membranes were harvested by filtration (TomTek harvester), washed four times with cold buffer (10 mmol/L MES, pH 6.0, 10 mmol/L MgCl2), dried in a 60°C oven, and the radioactivity was quantified as counts per min (CPM) using a TopCount detector. […] Data were analyzed using a 4‐parameter nonlinear logistic equation. […] Results are expressed as the geometric mean ± standard deviation or geometric mean ± standard error as noted.

Kd: 4.12 nM
SMILES: CCCCC[C@H](O)/C=C/[C@H]1[C@H](O)CC(=O)[C@@H]1C/C=C\CCCC(=O)O [^3[H] PGE2, reference compound]
